The values that follow are results of earlier work, collected in patent US20220001039A1, “COMPOSITIONS AND METHODS FOR DETECTING ACE2 EXPRESSION PROFILES” (Washington University, priority 2020, published 2022).

The conditions of the data set: in vivo; cited from earlier work.

Regarding 18F-Fluorodeoxyglucose [18F-FDG], the whole-body effective dose was 0.019 mSv/MBq.
